These are literature values, as cited in US20200129574A1, “AMARANTHUS BLITOIDES WITH VITAMIN D COMPOSITIONS TO ENHANCE VITAMIN D HALF-LIFE AND ACTIVATE VDR IN HUMANS AND METHODS OF USING SAME” (priority 2018, published 2020).

Take Vitamin D: the “daily ingestion at which toxicity observed” value (adults, long term daily ingestion) is 25 µg/kg. Besides, the “daily ingestion producing acute toxicity” value (adults, within two weeks) is 375 µg/kg. Further, the “dosage at which toxicity has been seen” value (healthy adults) is given as “above 1250 μg/day”.
